Test results reported in publication PMC5652008 (EBioMedicine, 2017).

Assay: Thermodynamic
Type: physicochemical
Details: phosphate buffer, pH 6.5, Solubility pH 6.5, Table 1, phosphate buffer 0.05 M
How it was run: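 Equilibrium solubility measured in 0.05 M phosphate buffer, pH 6.5.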

Structure (SMILES): CCCCCCCCCCCCCCCC(=O)NCCCC[C@H](NC(=O)[C@H]1CCCN1C(=O)[C@H](CCC(=O)O)NC(=O)[C@H](C)NC(=O)[C@@H](NC(=O)C[C@H](O)[C@H](CC(C)C)NC(=O)[C@H](CC(N)=O)NC(=O)[C@@H](NC(=O)[C@H](CCC(=O)O)NC(=O)CNC(=O)[C@@H](CCCCN)NC(=O)CNC(=O)[C@@H](CCCCN)NC(=O)[C@@H]1CCCN1C(=O)[C@@H](NC(=O)[C@H](Cc1ccccc1)NC(=O)[C@H](Cc1ccc(O)cc1)NC(=O)[C@@H]1CCCN1C(=O)[C@@H](N)Cc1ccc(O)cc1)[C@@H](C)CC)C(C)C)C(C)C)C(N)=O [Pep#11, Tyr-Pro-Tyr-Phe-Ile-Pro-DLys-Gly-DLys-Gly-Glu-Val-Asn-Sta-Val-Ala-Glu-DPro-Lys(Palmitoyl)-NH2]
- solubility thermodynamic: > 3000 µg/mL
